One experiment concerns the target CDK2/CycA2 (Homo sapiens (Human), UniProt P24941). The experiment can be described thus: Carna Biosciences kinase assay, CDK2/CycA2. It counts as biochemical. To be noted: read-out: IC50 μM, CDK2/CycA2; dose response.
For a further experiment, the target named is CDK2/CycE1 (Homo sapiens (Human), UniProt P24941). The experiment can be described thus: Carna Biosciences kinase assay, CDK2/CycE1. To be noted: read-out: IC50 μM, CDK2/CycE1; dose response. It counts as biochemical.

Structures are written as SMILES.

As for `COc1ccccc1[C@@H]1C2=C(CC(C)(C)CC2=O)Nc2n[nH]c(C)c21` [Compound 22], the IC50 on CDK2/CycA2 was found to be 1.5 µM; on CDK2/CycE1, 2.2 µM.

The record behind these values is US9096594B2 (dated 2015).
